Measured values reported in patent US20060030602A1, “(S)-amlodipine malate” (Sepracor Inc., priority 2004, published 2006).

Tests used:
[1] = multiple-dose pharmacokinetic studies in dogs, oral capsule; conditions: dog, in vivo
Description: The pharmacokinetic parameters AUC and Cmax from three multiple-dose studies in male and female dogs were compared. The 28-day pharmacokinetic assessments were compared. […] All doses were adjusted for salt form so all doses are in terms of mg base/kg. An aliquot of each unknown, standard and control sample was analyzed on a high performance liquid chromatographic system equipped with a Positive-Ion mass spectrometer detector (condition tabled below in Table 10).

[2] = adhesion studies on tablet punches; type: physicochemical; conditions: punch wash assayed by HPLC
Description: Avicel PH 101 and each (S)-amlodipine salt were pre-screened through a 25-mesh sieve to delump the powders prior to blending. […] Approximately 500 mg was weighed into the ½-inch tablet die, a tablet punch was added and 0.2 metric tons of pressure was applied using a Carver press for 2-3 seconds. The tablet was then removed, and the surfaces of the tablet punches (concave, SRC) were washed with mobile phase (1 mL). The wash was then assayed by HPLC. Three measurements were made for each blend.

Row | Substance | bioavailability compared to the maleate salt [1] | Adhesion, 5% (S)-Amlodipine salt in Avicel ([2]; 5% API blend with Avicel PH 101, 0.2 metric tons) | Adhesion, 25% (S)-Amlodipine salt in Avicel ([2]; 25% API blend with Avicel PH 101, 0.2 metric tons)
1 | (S)-amlodipine L-malate | greater bioavailability than the maleate salt | – | –
2 | Succinate | – | 1.6E−06 g (S)-amlodipine/cm^2 | 3.3E−06 g (S)-amlodipine/cm^2
